B2AR arrestin: beta2AR (human) beta-arrestin recruitment activity. P07550. beta-arrestin recruitment to beta2AR, cell-based reporter. Potency, µM (top dose mostly 46.1 µM), for inactives: at the highest dose activation, most hits filed as activators. 330,000 tested, 0.02% active;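 further: potency means the concentration at half of the fitted maximal effect; 0% = DMSO controls and full agonism = EC100 isoproterenol or metaproterenol; nearly all actives have a fitted effect of over 65% in size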
Nrf2 ARE act: Nrf2 pathway activation; AREc32 ARE-luciferase reporter (MCF7-derived line), luminescence, 24 h; Potency, µM (top dose mostly 46.1 µM), for the others: at the highest dose activation, hits mostly activators; 410,000 tested, 0.31% active; further: potency means the concentration at half of the fitted maximal effect; % of control where 0% means no effect; nearly all actives have a fitted effect of over 65% in size
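ARE-driven firefly luciferase activity in AREc32 cells measured after a 24 hr compound exposure at 37 deg C, using Steady-Glo reagent and a 30 min room-temperature hold.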
A549 tox: kills or reduces viability of A549 cells in Nrf2 counter-screen. 390,000 tested, 0.16% active. Potency, µM (highest dose often 46 µM), for inactives: top-dose activity change, negative = cytotoxicity, usual class: inhibitors. AID 504648. A549 ARE-Fluc cells, CellTiter-Fluor viability, 18-24 h; further: potency means the concentration at half of the fitted maximal effect; on the % scale 0 is the no-effect control and ±100 the full control effect
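A549 ARE-Fluc cells in 5% FBS OPTI-MEM, 5000 cells/well, rested 2 h then exposed to compounds in concentration-response for 18-24 h at 37 °C. Viability by CellTiter-Fluor fluorescence (Ex 405/Em 525) after 30 min; luciferase luminescence (BugLite, 15 min, RT) read afterwards.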
Nrf2 inh: Nrf2 pathway inhibition; 360,000 tested, 2.1% active; A549 ARE-Fluc reporter, luciferase luminescence, 18-24 h; Potency, µM (titrated, usually from 46 µM), for the others: top-dose activity change, negative = inhibition, usual class: inhibitors; further: potency means the concentration at half of the fitted maximal effect; on the % scale 0 is the no-effect control and ±100 the full control effect; nearly all actives have a fitted effect of over 60% in size
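Nrf2 function is reported as luminescence of an ARE-controlled luciferase in A549 cells. Compounds were tested at several concentrations, and a CellTiter-Fluor read on the same wells flagged cytotoxicity.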
miR-21 reporter: raises the signal of a miR-21 reporter | Potency, µM (highest dose often 38.3 µM), without a hit: at the top dose reporter change, positive = more light | HeLa miR-21 FLuc reporter, luciferase, 48 h | 340,000 tested, under 10 active; active = well fitted rising curve with a large enough effect; inconclusive = small, poorly fitted or top-dose-only effect; inactive = no such curve, though single readings can be large or run the other way;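 further: % of control where 0% means no effect; miR-21 action dims this reporter so a rising signal means less miR-21 action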
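Using DMEM plus 10% FBS, HeLa miR-21-FLuc cells are incubated with test compounds (final up to about 40uM) for 48 hours; firefly luciferase signal is then imaged following reagent-mediated lysis.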
* = called active by the depositor; u = inconclusive; x = not tested or not shown; [ ] = dose if it differs, or a comment. Shown are actives, neighbours in structure and some others; about 2.2% of the full set was active somewhere. The call rests on the fitted dose curve; in most records, active means well fitted curve in the direction sought with a large enough effect; inconclusive means small, poorly fitted or top-dose-only effect, or another doubt; inactive means no such curve, though single readings can be large; an effect the other way counts as inactive or inconclusive.

SMILES	B2AR arrestin	Nrf2 ARE act	A549 tox	Nrf2 inh	miR-21 reporter
Cc1ccc(C(NC(=O)C(C)C)c2cc([N+](=O)[O-])c3cccnc3c2O)cc1 (stereo unspecified)	-1%	0%	u	18µM*	5%
CCOc1ccc(Oc2nc(Nc3ccc(C)cc3)nc(N(C)C)n2)nn1	0%	0%	-12%	21µM*	1%
O=S1(=O)C=C(N2CCOCC2)c2ccccc21	0%	13µM*	-5%	5%	-3%
O=C(NCC(c1cccnc1)N1CCN(c2ccccc2F)CC1)c1cccc(Cl)c1 (stereo unspecified)	0%	4%	-17%	21µM*	21%
O=C(NCC(c1cccnc1)N1CCN(c2ccccc2F)CC1)c1ccc(F)cc1 (stereo unspecified)	x	1%	1%	-1%	6%
O=C(NCc1cccnc1)C(=O)NCC(c1ccco1)N1CCN(c2ccc(F)cc2)CC1 (stereo unspecified)	0%	2%	-5%	21µM*	1%
O=C(NCC(c1cccnc1)N1CCOCC1)C(=O)Nc1ccc(F)cc1 (stereo unspecified)	x	1%	-6%	23µM*	29%
O=C(NCc1cccs1)C(=O)NCC(c1ccco1)N1CCN(c2ccc(F)cc2)CC1 (stereo unspecified)	0%	1%	-19%	15µM*	18%
Cc1ccc(NC(=O)C(=O)NCC(c2cccnc2)N2CCOCC2)cc1C (stereo unspecified)	x	0%	u	u	u
COc1ccc(N2CCN(C(CNC(=O)C(=O)NCc3cccnc3)c3ccco3)CC2)cc1 (stereo unspecified)	0%	0%	-2%	7%	10%
COc1ccccc1OCC(=O)N(Cc1ccco1)Cc1ccccc1F	x	6%	5%	-2%	2%
COc1cc(-c2noc(-c3ccc(NCc4ccco4)c([N+](=O)[O-])c3)n2)cc(OC)c1OC	x	5%	4%	u	-17%
COc1ccccc1CNC(=O)C(=O)NCC(c1cccnc1)N1CCN(c2ccc(F)cc2)CC1 (stereo unspecified)	x	0%	u	21µM*	27%
COc1ccc(N2CCN(C(CNC(=O)C(=O)NCc3ccc(F)cc3)c3cccnc3)CC2)cc1 (stereo unspecified)	x	0%	u	-23%	-6%
Cc1cccc(S(=O)(=O)N2CCN(S(=O)(=O)c3ccc4c(c3)OCCO4)CC2)c1	x	x	12%	4%	x
Cc1cccc(-c2nnc(C3CCN(S(=O)(=O)c4cccc(Cl)c4)CC3)o2)c1	x	13%	-7%	-5%	-22%
CC(C)(C)OC(=O)CC(=O)NNC(=O)c1nc2ccccc2[nH]1	x	x	-8%	-1%	x
Cn1c(N)c(C(=O)COC(=O)C2(c3ccc(F)cc3)CCCC2)c(=O)n(C)c1=O	0%	5%	-6%	u	-8%
Cn1c(N)c(C(=O)COC(=O)C2(c3ccc(Cl)cc3)CCCC2)c(=O)n(C)c1=O	-1%	0%	u	18µM*	8%
O=S(=O)(c1c(Cl)cc(Br)cc1Cl)N1CCN(C(=S)NC2CC2)CC1	-1%	3%	-20%	12µM*	x
COc1ccccc1CNC(=O)c1cccn1-c1nnc(N2CCCC2)s1	x	0%	4%	u	-15%
O=C1CCCC1C(=O)Nc1ccc2ccccc2c1 (stereo unspecified)	0%	4%	-4%	-1%	-34%
O=C1CCCCC1Nc1ccc2ccccc2c1 (stereo unspecified)	x	5%	u	18µM*	x
COc1ccc(/C=C/c2nc(C#N)c(N3CCC(C(N)=O)CC3)o2)cc1OC	x	7%	-4%	u	-1%
CCN(CC)C(=O)C1CCN(S(=O)(=O)c2ccc3oc4ccccc4c3c2)CC1	0%	0%	-4%	21µM*	2%
SMILES	B2AR arrestin	Nrf2 ARE act	A549 tox	Nrf2 inh	miR-21 reporter
c1nc(NCCCN2CCCCC2)c2cc(-c3ccc4c(c3)OCO4)ccc2n1	x	x	-6%	0%	x
O=C(CSCC(=O)Nc1nc(-c2ccc3c(c2)OCO3)cs1)Nc1nccs1	0%	3%	2%	21µM*	-6%
Cc1nc(SCC(=O)Nc2nc3ccccc3s2)c(C#N)c(C)c1C	-1%	-2%	14%	4.6µM*	u
Cc1cc(C(F)(F)F)c(C#N)c(SCC(=O)Nc2nc3ccccc3s2)n1	-1%	3%[9.22 µM]	14%	u	-1%
Cc1c(CC(=O)N2CCN(C(=O)C3COc4ccccc4O3)CC2)c(=O)oc2cc(O)c(Cl)cc12 (stereo unspecified)	0%	0%	1%	23µM*	-3%
CCOC(=O)Cn1nc(C)c(NC(=O)COc2ccc(Cl)cc2C)c1C	x	4%	-2%	23µM*	15%
CCOC(=O)Cn1nc(C)c(NC(=O)COc2ccc(F)cc2F)c1C	0%	x	x	x	-1%
CCC(C)NC(=O)C1CCC(CNS(=O)(=O)c2ccc3c(c2)CC(C)N3C(C)=O)CC1 (stereo unspecified)	0%	0%	9%	-2%	0%
CC(=O)N1c2ccc(S(=O)(=O)NCC3CCC(C(=O)Nc4cc(C)ccn4)CC3)cc2CC1C (stereo unspecified)	-1%	-2%	u	23µM*	21%
CC(=O)N1c2ccc(S(=O)(=O)NCC3CCC(C(=O)N4CC(C)CC(C)C4)CC3)cc2CC1C (stereo unspecified)	0%	6%	-13%	16µM*	21%
CC(=O)N1c2ccc(S(=O)(=O)N3CCCC(C(=O)N4CCCC(C)C4)C3)cc2CC1C (stereo unspecified)	0%	0%	-7%	u	2%
CC(=O)N1c2ccc(S(=O)(=O)NCC3CCC(C(=O)Nc4ccc(C)cc4)CC3)cc2CC1C (stereo unspecified)	x	-1%	-14%	u	24%
COC(=O)Nc1ccc(S(=O)(=O)N2CCCC(C(=O)N3CCCCC3)C2)cc1 (stereo unspecified)	0%	2%	-11%	16µM*	3%
CC(=O)N1c2ccc(S(=O)(=O)N3CCCC(C(=O)N4CCC(C)CC4)C3)cc2CC1C (stereo unspecified)	-1%	1%	-14%	21µM*	14%
CCCCCn1c(=O)[nH]c2cc(C(=O)N3CCN(c4cccc(Cl)c4)CC3)ccc2c1=O	x	0%	0%	3%[9.27 µM]	20%
Cc1nc2c3ccccc3nc(NNC(=O)CCC(=O)N3CCN(c4cc(Cl)ccc4C)CC3)n2n1	x	1%	13%	11%	-5%
Cc1ccc(NC(=O)CCC(=O)N2Cc3ccccc3Oc3ncccc32)cc1	x	6%	13%	u	1%
O=C1CCc2cc(S(=O)(=O)Nc3ccncc3)ccc2N1	x	x	0%	11%	x
Clc1ccc(CON/C=N/c2ncnc3sccc23)cc1	0%	0%	-11%	21µM*	7%
